{"sequences": {"note": "Amino acid sequences for entries named in this document (tags omitted). A change or cut given only in a name is not applied to a line headed by its entry.", "UniProt P20594": "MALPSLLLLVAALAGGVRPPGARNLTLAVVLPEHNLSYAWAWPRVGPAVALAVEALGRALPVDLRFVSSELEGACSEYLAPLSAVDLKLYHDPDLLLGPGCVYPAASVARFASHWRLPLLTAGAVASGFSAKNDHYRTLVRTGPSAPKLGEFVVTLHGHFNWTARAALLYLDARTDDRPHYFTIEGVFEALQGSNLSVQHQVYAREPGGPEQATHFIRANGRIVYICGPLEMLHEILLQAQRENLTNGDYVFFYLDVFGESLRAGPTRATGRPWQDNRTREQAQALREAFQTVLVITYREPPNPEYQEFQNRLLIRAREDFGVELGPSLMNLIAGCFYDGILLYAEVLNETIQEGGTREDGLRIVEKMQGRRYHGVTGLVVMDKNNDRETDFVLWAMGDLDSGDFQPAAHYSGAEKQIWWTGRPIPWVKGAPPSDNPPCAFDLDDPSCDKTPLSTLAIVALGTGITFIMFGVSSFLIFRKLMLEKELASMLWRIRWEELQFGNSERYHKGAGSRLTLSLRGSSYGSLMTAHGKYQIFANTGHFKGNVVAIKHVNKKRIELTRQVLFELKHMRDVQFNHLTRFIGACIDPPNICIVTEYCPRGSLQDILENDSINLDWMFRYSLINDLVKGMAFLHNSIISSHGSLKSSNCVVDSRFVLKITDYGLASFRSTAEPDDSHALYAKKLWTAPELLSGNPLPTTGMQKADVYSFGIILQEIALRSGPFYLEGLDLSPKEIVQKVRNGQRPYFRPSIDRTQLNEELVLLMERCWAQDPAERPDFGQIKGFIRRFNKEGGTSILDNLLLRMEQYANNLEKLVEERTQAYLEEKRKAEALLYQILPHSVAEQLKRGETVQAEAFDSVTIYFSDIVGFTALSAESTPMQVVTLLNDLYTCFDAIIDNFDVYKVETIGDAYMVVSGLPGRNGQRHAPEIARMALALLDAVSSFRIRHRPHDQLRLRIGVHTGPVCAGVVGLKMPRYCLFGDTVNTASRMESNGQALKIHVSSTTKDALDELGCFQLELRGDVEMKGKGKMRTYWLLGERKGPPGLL"}, "source": "PubChem BioAssay AID1920062", "about": "(Sanford-Burnham Center for Chemical Genomics, 2024)", "note": "The entries are a selection whose mix differs from that of the whole data set. The source made the active and inactive calls.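 Rule for the calls: active = activation at 10 µM reaching about 35% in either raw or pattern-adjusted values (limit read from the data); inactive = the rest.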", "data": [{"biological_target": "Atrial natriuretic peptide receptor 2 (Homo sapiens) (UniProt P20594)", "test": "human GC-B receptor activators, primary screen, HEK293 GC-B cells, cGMP TR-FRET, EC30 CNP (AID 1920062)", "settings": "at 10 µM, hits give high values, 0% at EC30 CNP, 100% saturating CNP", "values": [{"smiles": "CN(C(=O)Cc1ccccc1)C1CC[C@@]2(CCCO2)C[C@@H]1N1CCCC1", "note": "(stereo not given in full)", "activation": "inactive: -2.12%"}, {"smiles": "CCn1c(=O)n(C2CCN(CC3CCCCCCC3)C[C@H]2CO)c2ccccc21", "note": "(stereo not given in full)", "activation": "inactive: 0.27%"}, {"smiles": "Cc1ccc(NP(=O)(Oc2ccccc2F)Oc2ccccc2F)nc1", "activation": "inactive: 6.59%"}, {"smiles": "CN(C(=O)Cc1ccc(Cl)c(Cl)c1)[C@H]1CCCC[C@@H]1N1CCCC1", "activation": "inactive: -1.15%"}, {"smiles": "CCOP(=O)(Nc1ccccc1)OCC", "activation": "inactive: -6.41%"}, {"smiles": "Cc1cc(SC(NC(=O)c2ccc(F)cc2)C(Cl)(Cl)Cl)ncn1", "note": "(stereo not given)", "activation": "inactive: -3.06%"}, {"smiles": "CN(C)P(=O)(N(C)C)n1c(Nc2ccccc2)nnc1-c1ccccc1", "activation": "inactive: -1.57%"}, {"smiles": "O=P(Nc1nc2ccc(Cl)cc2s1)(c1ccccc1)c1ccccc1", "activation": "inactive: 4.78%"}, {"smiles": "CCCC1OP(N)(=O)OCC1CC", "note": "(stereo not given)", "activation": "inactive: 3.37%"}, {"smiles": "O=C(O)c1ccccc1[As](=O)(O)O", "activation": "inactive: -0.48%"}, {"smiles": "CC(=O)Nc1ccc([As](=O)(O)O)cc1", "activation": "inactive: 2.84%"}, {"smiles": "O=C(NC(Sc1ccncn1)C(Cl)(Cl)Cl)c1ccccc1", "note": "(stereo not given)", "activation": "inactive: 2.43%"}, {"smiles": "Oc1ccccc1CNc1ccccn1", "activation": "inactive: -2.6%"}, {"smiles": "CC(C)CC(=O)NC(Sc1ccc(Cl)cc1)C(Cl)(Cl)Cl", "note": "(stereo not given)", "activation": "inactive: -0.14%"}, {"smiles": "Nc1cc(N)c2nonc2c1[N+](=O)[O-]", "activation": "inactive: 3.68%"}, {"smiles": "Clc1ccc(Cl)c(NC2=NCC(CBr)S2)c1", "note": "(stereo not given)", "activation": "inactive: -1.32%"}, {"smiles": "CN1CCCC(OC(=O)C(c2ccccc2)c2ccccc2)C1", "note": "(stereo not given)", "activation": "inactive: -10.4%"}, {"smiles": "Cc1ccc(OP(=O)(Nc2nccs2)Oc2ccc(C)cc2)cc1", "activation": "inactive: -0.24%"}, {"smiles": "COc1ccccc1OP(=O)(Nc1ccc(C)cn1)Oc1ccccc1OC", "activation": "inactive: 2.57%"}, {"smiles": "Cc1ccc(N/C(=N/P(=O)(N2CCOCC2)N2CCOCC2)N2CCOCC2)cc1", "activation": "inactive: -2.37%"}, {"smiles": "CN(C(=O)Cc1ccc(Cl)c(Cl)c1)[C@H]1CCCC[C@H]1N1CCCC1", "activation": "inactive: -4.75%"}, {"smiles": "NC(=O)c1cc([N+](=O)[O-])cc([N+](=O)[O-])c1N", "activation": "inactive: -0.92%"}, {"smiles": "O=[N+]([O-])c1cc(Oc2ccc([N+](=O)[O-])cc2C(F)(F)F)cc([N+](=O)[O-])c1", "activation": "inactive: -4.88%"}, {"smiles": "COc1ccc(N/C(=N/P(=O)(N2CCOCC2)N2CCOCC2)N2CCOCC2)cc1", "activation": "inactive: -3.52%"}, {"smiles": "O=P1(N(CCCl)CCCl)Nc2ccccc2N1", "activation": "inactive: -4.47%"}, {"smiles": "O=P1(N(CCCl)CCCl)OCCCN1CCCl", "note": "(stereo not given)", "activation": "inactive: 1.76%"}, {"smiles": "COc1cc(I)ccc1[As](=O)(O)O", "activation": "inactive: 0.56%"}, {"smiles": "COc1ccc2nc(NP(=O)(c3ccccc3)c3ccccc3)sc2c1", "activation": "inactive: -5.02%"}, {"smiles": "Cc1c2c(nc3ccccc13)SC(C(Cl)Cl)C2", "note": "(stereo not given)", "activation": "inactive: -0.9%"}, {"smiles": "Cc1cc(=O)[nH]c(N[N+](=O)[O-])n1", "activation": "inactive: 1.92%"}, {"smiles": "O=C(OC1CN2CCC1CC2)C12CC3CC(CC(C3)C1)C2", "note": "(stereo not given)", "activation": "inactive: -0.52%"}, {"smiles": "O=C(OC1CN2CCC1CC2)c1cccc2[nH]cnc12", "note": "(stereo not given)", "activation": "inactive: 0.22%"}, {"smiles": "CCN(CC)C(=S)SC(NC=O)C(Cl)(Cl)Cl", "note": "(stereo not given)", "activation": "inactive: 3.77%"}, {"smiles": "CC(C)NC(=O)NP(=O)(Oc1ccccc1)Oc1ccccc1", "activation": "inactive: 8.21%"}, {"smiles": "ClCCSc1nnc(-c2cccnc2)o1", "activation": "inactive: 2.87%"}, {"smiles": "CC(C)c1ccc(OP(=O)(Nc2ccccn2)Oc2ccccc2F)cc1", "note": "(stereo not given)", "activation": "inactive: -1.28%"}, {"smiles": "COC(=O)C1(C)COP(=O)(N2CCCCCC2)OC1", "note": "(stereo not given)", "activation": "inactive: -2.03%"}, {"smiles": "[N-]=[N+]=NC1CCCCC1NC(=O)c1cc([N+](=O)[O-])cc([N+](=O)[O-])c1", "note": "(stereo not given)", "activation": "inactive: -5.84%"}, {"smiles": "Cc1ccc(OP(=O)(Nc2ccc([N+](=O)[O-])cn2)Oc2ccc(C)cc2)cc1", "activation": "inactive: -1.79%"}, {"smiles": "Cc1ccc2nc3c(c(C)c2c1)CC(C(Cl)Cl)S3", "note": "(stereo not given)", "activation": "inactive: -3.77%"}, {"smiles": "COc1cc(C(=O)NCC2(N3CCOCC3)CCCCC2)ccc1OCC(C)C", "activation": "inactive: 1.76%"}, {"smiles": "O=[N+]([O-])c1ccc(-c2cc([N+](=O)[O-])c(O)c([N+](=O)[O-])c2)cc1", "activation": "inactive: 0.88%"}, {"smiles": "O=[As](O)(c1ccc(O)cc1)c1ccccc1O", "activation": "inactive: 1.78%"}, {"smiles": "C[As](=O)(O)c1cccc(C(=O)O)c1", "activation": "inactive: -3.04%"}, {"smiles": "O=P(Nc1ccccn1)(c1cccc2ccccc12)c1cccc2ccccc12", "activation": "inactive: -15.4%"}, {"smiles": "Cc1cc(SC(NC=O)C(Cl)(Cl)Cl)ncn1", "note": "(stereo not given)", "activation": "inactive: -3.22%"}, {"smiles": "O=[N+]([O-])c1ccc(Nc2ccc(Oc3ccc([N+](=O)[O-])cc3[N+](=O)[O-])cc2)c([N+](=O)[O-])c1", "activation": "inactive: -3.19%"}, {"smiles": "CCOC(=O)Nc1cccc([As](=O)(O)O)c1", "activation": "inactive: -1.63%"}, {"smiles": "COP(=O)(OC)N1CC1c1ccccc1", "note": "(stereo not given)", "activation": "inactive: -0.68%"}, {"smiles": "Cc1cc(SC(NC(=O)c2ccccc2)C(Cl)(Cl)Cl)nc(C(C)C)n1", "note": "(stereo not given)", "activation": "inactive: -0.67%"}, {"smiles": "CCCCOc1ccc(C(=O)NCC2(N3CCCCC3)CCCCC2)cc1OC", "activation": "inactive: 2.27%"}, {"smiles": "CCOC(=O)Nc1ccc([As](=O)(O)O)c(O)c1", "activation": "inactive: -0.04%"}, {"smiles": "O=C(O)C(O)c1ccc(N(CCCl)CCCl)cc1", "note": "(stereo not given)", "activation": "inactive: 0.18%"}, {"smiles": "CC1CCNP(=O)(N(CCCl)CCCl)O1", "note": "(stereo not given)", "activation": "inactive: -1.74%"}, {"smiles": "CCC(C)N(CC(C)C)C(=S)SC(NC(C)=O)C(Cl)(Cl)Cl", "note": "(stereo not given)", "activation": "inactive: -6.84%"}]}]}
